Results on six compounds are retold here after patent US9353093B2, “Indole-1-carboxamides as kinase inhibitors” (Allergan, Inc., priority 2014, dated 2016).

Protein sequences, listed by entry. Tags and fused reporters are not part of them. Residues count along the entry.
UniProt P35968, 786-1356: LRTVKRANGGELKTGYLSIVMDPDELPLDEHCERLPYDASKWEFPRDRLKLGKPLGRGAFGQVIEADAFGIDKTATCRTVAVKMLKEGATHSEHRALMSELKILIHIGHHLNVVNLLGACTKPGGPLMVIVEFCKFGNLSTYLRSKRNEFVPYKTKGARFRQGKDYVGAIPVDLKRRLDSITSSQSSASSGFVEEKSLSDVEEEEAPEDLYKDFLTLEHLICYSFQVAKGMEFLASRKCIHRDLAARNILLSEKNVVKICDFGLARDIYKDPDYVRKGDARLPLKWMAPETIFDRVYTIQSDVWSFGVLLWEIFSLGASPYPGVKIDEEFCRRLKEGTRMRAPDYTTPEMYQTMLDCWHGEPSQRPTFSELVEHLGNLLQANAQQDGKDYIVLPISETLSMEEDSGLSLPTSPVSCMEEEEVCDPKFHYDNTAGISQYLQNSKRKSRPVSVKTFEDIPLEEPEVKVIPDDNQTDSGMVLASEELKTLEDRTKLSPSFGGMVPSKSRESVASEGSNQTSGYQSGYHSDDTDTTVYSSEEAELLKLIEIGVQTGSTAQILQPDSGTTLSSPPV
UniProt P09619, 554-1106: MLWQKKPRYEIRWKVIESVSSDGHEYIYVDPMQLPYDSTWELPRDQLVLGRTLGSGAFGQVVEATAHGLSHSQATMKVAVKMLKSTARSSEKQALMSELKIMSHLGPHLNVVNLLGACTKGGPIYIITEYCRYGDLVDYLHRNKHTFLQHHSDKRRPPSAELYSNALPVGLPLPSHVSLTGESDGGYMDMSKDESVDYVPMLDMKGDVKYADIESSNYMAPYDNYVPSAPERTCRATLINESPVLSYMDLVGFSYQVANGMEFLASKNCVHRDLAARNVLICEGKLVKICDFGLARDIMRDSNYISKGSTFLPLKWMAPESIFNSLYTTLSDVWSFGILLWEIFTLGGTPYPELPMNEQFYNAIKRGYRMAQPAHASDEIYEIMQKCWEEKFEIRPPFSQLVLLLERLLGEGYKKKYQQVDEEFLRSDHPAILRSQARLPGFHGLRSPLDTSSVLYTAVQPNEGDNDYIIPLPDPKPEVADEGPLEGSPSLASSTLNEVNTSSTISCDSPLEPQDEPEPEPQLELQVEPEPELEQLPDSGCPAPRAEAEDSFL

In assay [1] the test system is VEGFR2 in HUVEC (human umbilical vein endothelial cells). Briefly: VEGFR2 Cellular Assay (FLIPR, VEGF induced increases in intracellular calcium). Format: cell-based. As to conditions: VEGF165 stimulation (10 ng/mL), 30 minutes pre-incubation, Fluo-4 calcium, read-out: Receptor VEGFR2 IC50. The procedure: VEGFR2 Cellular Assay Automated FLIPR (Fluorometric Imaging Plate Reader) technology was used to screen for inhibitors of VEGF induced increases in intracellular calcium levels in fluorescent dye loaded endothelial cells. HUVEC (human umbilical vein endothelial cells) (Clonetics) were seeded in 384-well fibronectin coated black-walled plates overnight @37° C./5% CO2. Cells were loaded with calcium indicator Fluo-4 for 45 minutes at 37° C. Cells were washed 2 times (EIx405, Biotek Instruments) to remove extracellular dye. For screening, cells were pre-incubated with test agents for 30 minutes, at a single concentration (10 uM) or at concentrations ranging from 0.0001 to 10.0 uM followed by VEGF165 stimulation (10 ng/mL). Changes in fluorescence at 516 nm were measured simultaneously in all 384 wells using a cooled CCD camera. Data were generated by determining max-min fluorescence levels for unstimulated, stimulated, and drug treated samples. IC50 values for test compounds were calculated from % inhibition of VEGF stimulated responses in the absence of inhibitor.

For assay [2], the target named is purified cytoplasmic domain KDR protein (VEGFR2) (Homo sapiens (Human), UniProt P35968). Briefly: VEGFR2 Kinase Assay. Format: biochemical. As to conditions: 2.7 μM ATP, poly-Glu-Tyr (4:1) substrate, 15 minute incubation at 30° C.; read-out: Enzyme VEGFR2 IC50. How it is done:
VEGFR2 Kinase Assay Biochemical KDR kinase assays were performed in 96 well microtiter plates that were coated overnight with 75 μg/well of poly-Glu-[…]:1) in 10 mM Phosphate Buffered Saline (PBS), pH 7.4. The coated plates were washed with 2 mls per well PBS+0.05% Tween-20 (PBS-T), blocked by incubation with PBS containing 1% BSA, then washed with 2 mls per well PBS-T prior to starting the reaction. Reactions were carried out in 100 μL reaction volumes containing 2.7 μM ATP in kinase buffer (50 mM Hepes buffer pH 7.4, 20 mM MgCl2, 0.1 mM MnCl2 and 0.2 mM Na3VO4). […] Reactions were initiated by the addition 20 ul per well of kinase buffer containing 200-300 ng purified cytoplasmic domain KDR protein (BPS Bioscience, San Diego, Calif.). Following a 15 minute incubation at 30° C., the reactions were washed 2 mls per well PBS-T. 100 μl of a monoclonal anti-phosphotyrosine antibody-peroxidase conjugate diluted 1:10,000 in PBS-T was added to the wells for 30 minutes. Following a 2 mls per well wash with PBS-Tween-20, 100 μl of O-Phenylenediamine Dihydrochloride in phosphate-citrate buffer, containing urea hydrogen peroxide, was added to the wells for 7-10 minutes as a colorimetric substrate for the peroxidase. The reaction was terminated by the addition of 100 μl of 2.5N H2SO4 to each well and read using a microplate ELISA reader set at 492 nm. IC50 values for compound inhibition were calculated directly from graphs of optical density (arbitrary units) versus compound concentration following subtraction of blank values.

In assay [3] the target is purified cytoplasmic domain PDGFR-b protein (PDGFRβ) (Homo sapiens (Human), UniProt P09619). Briefly: PDGFRβ Kinase Assay. Format: biochemical. The conditions noted are these: 36 μM ATP, poly-Glu-Tyr (4:1) substrate, 60 minute incubation at 30° C.; read-out: Enzyme PDGFβ IC50. How it is done: Biochemical PDGFRβ kinase assays were performed in 96 well microtiter plates that were coated overnight with 75 μg of poly-Glu-Tyr (4:1) in 10 mM Phosphate Buffered Saline (PBS), pH 7.4. The coated plates were washed with 2 mls per well PBS+0.05% Tween-20 (PBS-T), blocked by incubation with PBS containing 1% BSA, then washed with 2 mls per well PBS-T prior to starting the reaction. Reactions were carried out in 100 μL reaction volumes containing 36 μM ATP in kinase buffer (50 mM Hepes buffer pH 7.4, 20 mM MgCl2, 0.1 mM MnCl2 and 0.2 mM Na3VO4). Test compounds were reconstituted in 100% DMSO and added to the reaction to give a final DMSO concentration of 5%. Reactions were initiated by the addition 20 ul per well of kinase buffer containing 200-300 ng purified cytoplasmic domain PDGFR-b protein (Millipore). Following a 60 minute incubation at 30° C., the reactions were washed 2 mls per well PBS-T. 100 μl of a monoclonal anti-phosphotyrosine antibody-peroxidase conjugate diluted 1:10,000 in PBS-T was added to the wells for 30 minutes. […] The reaction was terminated by the addition of 100 μl of 2.5N H2SO4 to each well and read using a microplate ELISA reader set at 492 nm. IC50 values for compound inhibition were calculated directly from graphs of optical density (arbitrary units) versus compound concentration following subtraction of blank values.

The structures appear in SMILES notation.

For the compound `NC(=O)n1c(-c2cc(NC(=O)Nc3ccc(Cl)c(C(F)(F)F)c3)cs2)cc2ccccc21` [Example 31, 2-{4-[({[4-chloro-3-(trifluoromethyl)phenyl]amino}carbonyl)amino]-2-thienyl}-1H-indole-1-carboxamide], the results for the concentration for half-maximal inhibition (IC50) in assay [1] and in assay [2] were 7350 nM and 131 nM, respectively.
Consider `NC(=O)n1c(-c2ccc(NC(=O)Nc3ccc(F)c(Cl)c3)cc2)cc2ccccc21` [Example 5, 2-[4-({[(3-chloro-4-fluorophenyl)amino]carbonyl}amino)phenyl]-1H-indole-1-carboxamide], for which the figures for the half-maximal inhibitory concentration (IC50) in assay [1] and in assay [2] were 97 nM and 8 nM, respectively.
Consider `Cc1cccc(NC(=O)Nc2csc(-c3cc4ccccc4n3C(N)=O)c2)c1` [Example 26, 2-[4-({[(3-methylphenyl)amino]carbonyl}amino)-2-thienyl]-1H-indole-1-carboxamide], for which the figures for the half-maximal inhibitory concentration (IC50) in assay [1] and in assay [2] were 508 nM and 67 nM, respectively.
Turning to `NC(=O)n1c(-c2cc(NC(=O)Nc3cccc(C(F)(F)F)c3)cs2)cc2ccccc21` [Example 27, 2-{4-[({[3-(trifluoromethyl)phenyl]amino}carbonyl)amino]-2-thienyl}-1H-indole-1-carboxamide], the IC50 turned out to be 1210 nM in assay [1] and 93 nM in assay [2].
As to `CC(C)c1cccc(NC(=O)Nc2ccc(-c3cc4ccccc4n3C(N)=O)cc2)c1` [Example 4, 2-[4-({[(3-isopropylphenyl)amino]carbonyl}amino)phenyl]-1H-indole-1-carboxamide], the IC50 in assay [1] was 15 nM; in assay [2] it was 6 nM; in assay [3], 16 nM.
In the case of `NC(=O)n1c(-c2ccc(NC(=O)Nc3cc(C(F)(F)F)ccc3F)cc2)cc2ccccc21` [Example 9, 2-{4-[({[2-fluoro-5-(trifluoromethyl)phenyl]amino}carbonyl)amino]phenyl}-1H-indole-1-carboxamide], the half-maximal inhibitory concentration (IC50) turned out to be 139 nM in assay [1] and 11 nM in assay [2].

Broadly, the IC50 is the concentration needed to halve the response being measured.
